These are literature values, as cited in US20080090885A1, “Preparation of losartan 5-carboxylic acid and use thereof” (priority 2006, published 2008).

The target of this data set is AT1 receptor (Homo sapiens, UniProt P30556). The settings on record: AT1 receptor antagonist; times more potent than losartan.

Molecules are shown by their SMILES.

Regarding `CCCCc1nc(Cl)c(C(=O)O)n1Cc1ccc(-c2ccccc2-c2nn[nH]n2)cc1` [EXP-3174, losartan 5-carboxylic acid], the “potency relative to losartan” value is 10-40 times.
